Shown are actives, neighbours in structure and some others; about 16% of the full set was active somewhere.
TDP1 cell CPT – DT40-hTDP1 cell growth loss with CPT. chicken DT40 Tdp1-/-;hTDP1 cells + 20 nM CPT, ATP luminescence, 48 h. Potency, µM (titrated, usually from 46.2 µM), for the others: at the highest dose activity change, negative = growth inhibition, hits mostly inhibitors. 420,000 tested, 12% active. AID 686979; also: potency is read from the fitted curve at half-maximal effect; % is scaled to controls: 0 for no effect and ±100 for the full control effect; nearly all actives have a fitted effect of over 55% in size
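Chicken DT40 Tdp1-/- cells stably complemented with human TDP1 were seeded at 400 cells/well in medium containing 20 nM camptothecin, exposed to pin-transferred compounds, and grown at 37 °C for at least 48 hr. Viability was read as ATP luminescence.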
TDP1 block – inhibitors of human tyrosyl-DNA phosphodiesterase TDP1; recombinant TDP1, AlphaScreen DNA substrate cleavage; 350,000 tested, 0.28% active; Potency, µM (doses to about 130 µM), for the others: top-dose activity change, negative = inhibition, actives largely listed as inhibitors; also: potency is read from the fitted curve at half-maximal effect; % is scaled to controls: 0 for no effect and ±100 for the full control effect; nearly all actives have a fitted effect of over 40% in size
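Steps: enzyme plus compound, 15 min RT; add biotin/phosphotyrosine-FITC oligonucleotide (15 nM final), react 5 min; add donor/acceptor beads (10 ug/ml final), 10 min; read AlphaScreen. Tdp1 at 1 nM final.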
DT40 TDP1 no CPT – qHTS for Inhibitors of human tyrosyl-DNA phosphodiesterase 1 (TDP1): qHTS in cells in absence of CPT | AID 686978, 2013 | 420,000 tested, 15% active | Potency, µM (top dose mostly 46.2 µM), without a hit: at the highest dose activity change, negative = growth inhibition, usual class: inhibitors | DT40 Tdp1-/- hTDP1 cells, no CPT, ATP luminescence, 48 h; also: potency is read from the fitted curve at half-maximal effect; % is scaled to controls: 0 for no effect and ±100 for the full control effect; nearly all actives have a fitted effect of over 55% in size
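Compound effects on proliferation are scored in DT40 Tdp1-/-;hTDP1 cells in the absence of CPT. ATP levels (CellTiter-Glo luminescence) are recorded after a ≥48 hr, 37 °C incubation.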
uPA surface inh – blocks generation of uPA at the cell surface. cell surface uPA generation assay, qHTS. Potency, µM (highest dose often 38.3 µM), for inactives: top-dose activity change, negative = inhibition, most hits filed as inhibitors. 330,000 tested, 0.31% active. AID 540303; active = well fitted inhibition curve with a large enough effect; inconclusive = small, poorly fitted or top-dose-only effect; inactive = no such curve, though single readings can be large or run the other way; tested in mouse RAW 264.7 cells; also: potency is read from the fitted curve at half-maximal effect; % is scaled to controls: 0 for no effect and ±100 for the full control effect; nearly all actives have a fitted effect of over 55% in size
miR-21 reporter – raises the signal of a miR-21 reporter; 340,000 tested, under 10 active; HeLa miR-21 FLuc reporter, luciferase, 48 h; Potency, µM (series often up to 38.3 µM), for inactives: at the highest dose reporter change, positive = more light; active = well fitted rising curve with a large enough effect; inconclusive = small, poorly fitted or top-dose-only effect; inactive = no such curve, though single readings can be large or run the other way;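 further: % of control where 0% means no effect; miR-21 action dims this reporter so a rising signal means less miR-21 action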
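HeLa cells endogenously expressing miR-21, stably carrying CMV-driven firefly luciferase with a downstream miR-21 binding site, 2000 cells/well. Titrations up to approximately 40 uM, 48 hours; luciferase luminescence read.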
* = called active by the depositor; ? = inconclusive; . = not tested or not shown; [ ] = another dose, or the depositor's remark. Unless noted, calls follow the shape of the dose curve; as a rule, active = well fitted curve in the direction sought with a large enough effect; inconclusive = small, poorly fitted or top-dose-only effect, or another doubt; inactive = no such curve, though single readings can be large; an effect the other way counts as inactive or inconclusive.

Preview:
Short keys: A = TDP1 cell CPT; B = TDP1 block; C = DT40 TDP1 no CPT; D = uPA surface inh; E = miR-21 reporter
CCCCC(=O)N/N=C(/C)C1=C(C)C(C)(C)OC1=O
  A: -6%; B: 3%; C: 8%; D: 12%; E: 0%
Cc1occc1C(=O)N1CCCC(CCC(=O)NCc2ccc(F)c(F)c2)C1 (stereo not drawn)
  A: ?; B: .; C: 21µM*; D: -1%; E: -6%

Results, previewed entries included:
Short keys: A = TDP1 cell CPT; B = TDP1 block; C = DT40 TDP1 no CPT; D = uPA surface inh; E = miR-21 reporter
CCCCC(=O)N/N=C(/C)C1=C(C)C(C)(C)OC1=O
  A: -6%; B: 3%; C: 8%; D: 12%; E: 0%
Cc1occc1C(=O)N1CCCC(CCC(=O)NCc2ccc(F)c(F)c2)C1 (stereo not drawn)
  A: ?; B: .; C: 21µM*; D: -1%; E: -6%
COc1cccc(CNC(=O)CCC2CCCN(C(=O)c3cc4ccccc4o3)C2)c1 (stereo not drawn)
  A: ?; B: 5%; C: 13µM*; D: -7%; E: -29%
OC(COc1ccccc1)CN1CCCCC1 (stereo not drawn)
  A: -7%; B: .; C: 5%; D: 2%; E: .
O=C(c1ccccc1)c1ccc(OCC(O)CN2CCN(S(=O)(=O)N3CCCCC3)CC2)cc1 (stereo not drawn)
  A: ?; B: 8%; C: 18µM*; D: .; E: 29%
OC(COc1ccc(-c2ccccc2)cc1)CN1CCCCC1 (stereo not drawn)
  A: ?; B: .; C: 26µM*; D: .; E: .
COc1ccc(C2NC(=O)NC(C)=C2C(=O)Nc2ccccc2)cc1OC (stereo not drawn)
  A: 7%; B: -2%[12.3 µM]; C: 0%; D: .; E: 1%
Cc1ccc2nc(-c3ccc(Br)cc3)cc(C(=O)NCC3CCCO3)c2c1 (stereo not drawn)
  A: 15µM*; B: .; C: 15µM*; D: .; E: .
CCOc1ccc(-c2cc(C(=O)NCC3CCCO3)c3ccccc3n2)cc1 (stereo not drawn)
  A: 16µM*; B: -4%; C: 15µM*; D: -2%; E: 15%
Cc1ccc2nc(-c3ccccc3)cc(C(=O)NCC3CCCO3)c2c1 (stereo not drawn)
  A: -24%; B: 0%; C: ?; D: -10%; E: -3%
Cc1ccc(CCNC(=O)C2CC(=O)N(CCc3ccccc3)C2)cc1 (stereo not drawn)
  A: -13%; B: 1%; C: 0%; D: -9%; E: 0%
NC1CCN(c2c(F)cc3c(=O)c(C(=O)O)cn(C4CC4)c3c2Cl)C1 (stereo not drawn)
  A: 7.3µM*; B: 0%; C: 6.5µM*; D: -14%; E: -6%
NC1CCN(c2nc3c(cc2F)c(=O)c(C(=O)O)cn3-c2ccc(F)cc2F)C1 (stereo not drawn)
  A: 16µM*; B: .; C: 8.2µM*; D: 7%; E: .
CC1CCc2c(N3CCC(O)CC3)c(F)cc3c(=O)c(C(=O)O)cn1c23 (stereo not drawn)
  A: ?; B: -2%; C: ?; D: 13%; E: .
O=C(CC1CCCC1)N1CCN(S(=O)(=O)c2c(F)cccc2F)CC1
  A: 0%; B: .; C: -29%; D: .; E: .
O=S(=O)(c1c(F)cccc1F)N1CCCC2CCCCC21 (stereo not drawn)
  A: ?; B: -8%; C: 21µM*; D: 2%; E: .
CCC(Sc1nc2cc3c(cc2c(=O)n1Cc1ccco1)OCO3)C(=O)Nc1cccc(OC)c1 (stereo not drawn)
  A: ?; B: 3%; C: ?; D: -2%; E: 6%
CCC(Sc1nc2cc3c(cc2c(=O)n1Cc1ccco1)OCO3)C(=O)Nc1ccccc1OC (stereo not drawn)
  A: 8.2µM*; B: 2%; C: 8.2µM*; D: 3%; E: -2%
CCCCNC(=O)CSc1nc2cc3c(cc2c(=O)n1Cc1ccco1)OCO3
  A: 18µM*; B: 1%; C: 16µM*; D: -1%; E: 1%
COCCNC(=O)CSc1nc2cc3c(cc2c(=O)n1Cc1ccco1)OCO3
  A: -27%; B: 2%; C: -19%; D: -2%; E: 4%
O=C(O)CSc1nnc(-c2cc3ccccc3o2)n1-c1ccccc1
  A: -1%; B: 8%; C: 6%; D: 1%; E: -7%
Clc1ccc2c(N3CCOCC3)ccnc2c1
  A: -27%; B: .; C: ?; D: -4%; E: -25%
Clc1ccc2c(N3CCCC3)ccnc2c1
  A: ?; B: -3%; C: ?; D: -3%; E: 4%
Oc1ccc(N2CCN(c3ccnc4cc(Cl)ccc34)CC2)cc1
  A: ?; B: 13%; C: 23µM*; D: -13%; E: 11%
COc1ccc(N2CCN(c3ccnc4cc(Cl)ccc34)CC2)cc1
  A: ?; B: 2%; C: 18µM*; D: 3%; E: 0%
CC1CN(c2ccnc3cc(Cl)ccc23)CC(C)O1 (stereo not drawn)
  A: ?; B: .; C: 12µM*; D: -13%; E: -1%
O=C(CCC1CCCC1)NCCS(=O)(=O)N1CCN(c2ccccc2F)CC1
  A: ?; B: 1%; C: 15µM*; D: -5%; E: .

One compound at a time (already shown). Order of screens: TDP1 cell CPT, TDP1 block, DT40 TDP1 no CPT, uPA surface inh, miR-21 reporter
OC(COc1ccc(-c2ccccc2)cc1)CN1CCCCC1 (stereo not drawn) is listed with ?, ., 26µM*, ., .
Oc1ccc(N2CCN(c3ccnc4cc(Cl)ccc34)CC2)cc1 is listed with ?, 13%, 23µM*, -13%, 11%
